Test results taken from US8008290B2, “Compounds” (priority 2009, dated 2011).

Biological target: T1, Human recombinant cathepsin K (Homo sapiens, UniProt P43235)
T1 sequence (P43235 115-329): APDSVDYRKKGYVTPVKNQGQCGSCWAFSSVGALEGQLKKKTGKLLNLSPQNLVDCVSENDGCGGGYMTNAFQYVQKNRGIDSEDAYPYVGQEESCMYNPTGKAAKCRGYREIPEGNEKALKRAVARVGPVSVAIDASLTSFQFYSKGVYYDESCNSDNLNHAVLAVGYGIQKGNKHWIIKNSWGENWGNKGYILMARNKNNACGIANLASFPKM
Test: In vitro cathepsin Ki inhibition measurement, cathepsin K
Assay type: biochemical
Details: relative to prior art compound (38)
Protocol: Stock solutions of substrate or inhibitor were made up to 10 mM in 100% dimethylsulfoxide (DMSO) (Rathburns, Glasgow, U.K.) and diluted as appropriately required. In all cases the DMSO concentration in the assays was maintained at less than 1% (vol./vol.). The equilibrium inhibition constants (Ki^ss) for each compound were measured under steady-state conditions monitoring enzyme activity as a function of inhibitor concentration. […] B. […] The apparent inhibition constant (Ki) for each compound was determined on the basis that inhibition was reversible and occurred by a pure-competitive mechanism. […] F. Trends Biochem. […] Morrison, J. F. Biochim. Biophys. […] Curves were fitted by non-linear regression analysis (Prism) using a fixed value for the enzyme concentration.

O=C(N[C@H](C(=O)N1CC[C@H]2OCC(=O)[C@H]21)C1CCCCC1)c1ccccc1 [Compound 1]
fold improvement in in vitro potency against human cathepsin K: greater than 13 fold
